ChEMBL document CHEMBL5241090, “A comprehensive overview of β-carbolines and its derivatives as anticancer agents” (Eur J Med Chem, 2021)

Amino acid sequences for entries named in this document (tags omitted).
UniProt Q00535, whole entry: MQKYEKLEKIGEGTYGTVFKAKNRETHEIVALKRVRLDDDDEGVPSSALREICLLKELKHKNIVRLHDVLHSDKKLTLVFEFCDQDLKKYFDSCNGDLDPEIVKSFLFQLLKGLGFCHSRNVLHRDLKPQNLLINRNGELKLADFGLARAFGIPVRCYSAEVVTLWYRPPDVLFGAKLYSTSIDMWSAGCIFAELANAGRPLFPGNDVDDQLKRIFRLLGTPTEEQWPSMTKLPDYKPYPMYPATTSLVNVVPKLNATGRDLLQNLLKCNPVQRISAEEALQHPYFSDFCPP

Molecular target: Cyclin-dependent kinase 5/CDK5 activator 1 (Homo sapiens, UniProt Q00535)
Assay: Inhibition of human CDK5/p25 nck5a
Type: protein-complex assay

Structure (SMILES): COc1ccc2c(c1)[nH]c1c(C)nccc12 [HARMINE]
- IC50: 20 µM
